From US20260240763A1, “Inhalable Serotonin Receptor Agonist Formulations” (Pinata Holdings Inc., priority 2022, published 2026)

Assay: Absorption of inhaled composition into the blood stream compared with oral administration
Type: in vivo, human
Settings: encapsulated dry powder mixed with lactose, administered with an inhaler; subject; paper example in present tense
Procedure: A subject perceives an aura which indicates of the onset of a migraine. An aura usually occurs within an hour before head pain begins and generally lasts less than 60 minutes. […] The subject is administered a pharmaceutical composition to treat the upcoming migraine headache. The pharmaceutical composition comprises an encapsulated serotonin agonist which has been processed to an encapsulated dry powder using the methods described herein (e.g., spay drying). The dry powder is mixed with a lactose powder. The serotonin agonist is packaged in a capsule and is administered with an inhaler. The dosing regimen comprises an effective amount of a serotonin agonist to treat the allergic reaction.
A subject has migraine headaches. The subject is administered a pharmaceutical composition to treat the migraine headaches. […]
A subject is diagnosed with obesity. […] Effective treatment is determined by measuring the subject's weight prior to the first administration of the treatment as compared to the subject's weight after administration of the treatment for a specified time (e.g., one month). […]
A subject is diagnosed with an opioid addiction. […] The dosing regimen comprises an effective amount ibogaine to treat the opioid addiction as measured by the subject's self-assessment of opioid craving. […]

For ibogaine, the “absorption reaches the blood stream faster than a comparable pharmaceutical composition administered orally” value was “at least 5 ×”.
